# Test results: article PMC7959846, “Block of Voltage-Gated Sodium Channels by Atomoxetine in a State- and Use-dependent Manner” (Frontiers in Pharmacology, 2021)
# Experiments:
# [1] = molecular target: T1, hNav1.5_I408W_L409C_A410W (WCW mutant) (Homo sapiens, UniProt Q14524, A410W/I408W/L409C); assay: Interaction with the open state, inactivation-deficient WCW mutant; assay type: cell-based
# T1 construct: expressed in transfected cells; host or cells: tsA201 (HEK-293 derivative)
# [2] = molecular target: hNav1.5_I408W_L409C_A410W_F1760K (F1760K_WCW mutant) (Homo sapiens, UniProt Q14524, A410W/F1760K/I408W/L409C); assay: Binding site: late current of the F1760K mutant in the WCW background; assay type: cell-based
compound,measurement,setting,value
CNCC[C@@H](Oc1ccccc1C)c1ccccc1 [atomoxetine],hill coefficient (late current),[1],0.99 ± 0.17
same,time required to achieve a steady state condition,[1]; 3 µM atomoxetine,less than 10 ms
same,effect on peak current (drug binding to the resting state),[1]; atomoxetine up to 10 µM,hardly affected
same,IC50,"[1]; half maximal inhibition of the late current (IC50), test pulse 50 ms, −20 mV, preincubation 30 s, N = 5",3.06 ± 0.4 µM
same,hill coefficient (late current),[2],0.88
same,IC50,"[2]; N = 5, read-out: half maximal effect on the late current (IC50)",182 ± 11.9 µM
